Values of other authors, collected in patent US20070043110A1, “Nontoxic potentiation sensitization of ovarian cancer therapy by supplementary treatment with vitamins” (Summa Health System, priority 2001, published 2007).

Conditions: oral 500 mg/Kg daily for 30 days; cited from earlier work

SMILES: CC1=CC(=O)c2ccccc2C1=O [Vitamin K3, 2-Methyl-1,4-Naphthoquinone]
- chronic toxicity: toxic
